Experimental vapor pressure values from OPERA 2.9

Values as listed in the OPERA 2.9 repository of K. Mansouri.

Vapor pressures (log10 mmHg) refer to near room temperature, 15 to 30 °C; higher is more volatile.

* Clc1cc(Cl)c(Cl)c(-c2ccccc2)c1: log VP -3.524 (log10 mmHg)
* C/C=C/C=C/C: log VP 1.932 (log10 mmHg)
* Cc1cc(O)ccc1O: log VP -4.684 (log10 mmHg)
* CC(C)c1ccccc1C(=O)O: log VP -3.459 (log10 mmHg)
* Oc1ccc(Cl)c(O)c1: log VP -1.894 (log10 mmHg)
* O=C([O-])C(O)C(O)C(=O)[O-].[Ca+2] (configuration not stated): log VP -6.678 (log10 mmHg)
* CCC(C)(C)C1CCC(=O)CC1: log VP -1.502 (log10 mmHg)
* COCCC(=O)N(C)C: log VP -0.247 (log10 mmHg)
* c1cc(CN(CC2CO2)CC2CO2)cc(CN(CC2CO2)CC2CO2)c1 (configuration not stated): log VP -1.084 (log10 mmHg)
* CC(C#N)N=CO (configuration not stated): log VP -1.763 (log10 mmHg)
* CC1=CC(=O)C(C(C)C)CC1 (configuration not stated): log VP -1.151 (log10 mmHg)
* C=C[Si](C)(Cl)Cl: log VP 1.672 (log10 mmHg)
* COc1ccc(Cl)c(OC)c1O: log VP -2.205 (log10 mmHg)
* CCOC(=O)C1C(C)=CC(=O)CC1(C)C (configuration not stated): log VP -2.824 (log10 mmHg)
* c1ccc2[nH]cnc2c1: log VP -5.625 (log10 mmHg)
* CC(=O)Oc1c(C)c(C)c2c(c1C)CCC(C)(CCCC(C)CCCC(C)CCCC(C)C)O2 (configuration not stated): log VP -10.19 (log10 mmHg)
* O=C(n1ccnc1)n1ccnc1: log VP -4.186 (log10 mmHg)
* CCCCCC1C(=O)CCC1CC(=O)OC (configuration not stated): log VP -2.802 (log10 mmHg)
* O=C(Cl)c1ccc2c(c1)C(=O)OC2=O: log VP -3.771 (log10 mmHg)
* CCC(C=O)CC: log VP 1.228 (log10 mmHg)
* CC=C1CC2C=CC1C2 (configuration not stated): log VP 0.623 (log10 mmHg)
* Cc1cc(-n2nc3ccc(Cl)cc3n2)c(O)c(C(C)(C)C)c1: log VP -8.252 (log10 mmHg)
* CC(C=O)Cc1cccc(C(C)(C)C)c1 (configuration not stated): log VP -2.497 (log10 mmHg)
* C=C(C)C(=O)OCC(F)(F)C(F)(F)C(F)(F)C(F)F: log VP 0.969 (log10 mmHg)
* Clc1cc(Cl)c(-c2ccc(Cl)c(Cl)c2Cl)c(Cl)c1: log VP -5.025 (log10 mmHg)
* C=C(C)C(C)(C)O: log VP 0.966 (log10 mmHg)
* Clc1ccc(-c2c(Cl)c(Cl)c(Cl)c(Cl)c2Cl)cc1Cl: log VP -5.836 (log10 mmHg)
* CC(=O)O[Si](C)(OC(C)=O)OC(C)=O: log VP -1.2 (log10 mmHg)
* O=C=Nc1ccc(Cc2ccccc2N=C=O)cc1: log VP -4.979 (log10 mmHg)
* COC(C)CCOC(C)=O (configuration not stated): log VP -0.477 (log10 mmHg)
* CN1CCN(C)CCN(C)CC1: log VP -0.035 (log10 mmHg)
* CC(O)Cn1ccnc1 (configuration not stated): log VP -2.894 (log10 mmHg)
* Cc1c(C)c2c(c(C)c1O)CCC(C)(CCCC(C)CCCC(C)CCCC(C)C)O2 (configuration not stated): log VP -8.368 (log10 mmHg)
* C[C@H]1CC[C@@H](O)CC1: log VP -0.447 (log10 mmHg)
* O=C=NCc1cccc(CN=C=O)c1: log VP -3.811 (log10 mmHg)

The last 2 entries again:

* C[C@H]1CC[C@@H](O)CC1: log VP -0.447 (log10 mmHg)
* O=C=NCc1cccc(CN=C=O)c1: log VP -3.811 (log10 mmHg)

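OPERA's authors assembled the values from existing databases and did not measure them anew. One number stands for a compound and property, with no spread given. Method, purity and exact conditions of the single measurements are not given. Where a salt, mixture or single isomer is drawn, the source does not say that exactly this form was tested. Some upstream entries may be estimates or bounds without being marked so.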